Experiment: Inhibition of Escherichia coli thymidylate synthase

IC50: 15 µM
Compound: Nc1nc2[nH]cc(CCc3ccc(C(=O)N[C@@H](CCC(=O)O)C(=O)O)cc3)c2c(=O)[nH]1 [PEMETREXED]

Source: ChEMBL document CHEMBL2046359, “Novel tricyclic indeno[2,1-d]pyrimidines with dual antiangiogenic and cytotoxic activities as potent antitumor agents” (Bioorg Med Chem, 2012)
